# Measurements from patent US10894784B2, “Heteroarylbenzimidazole compounds” (BAYER PHARMA AKTIENGESELLSCHAFT, priority 2015, dated 2021).
# Sequences of proteins named here, by UniProt entry; tags and fusion partners are left off.
# UniProt Q9UHD2, whole entry: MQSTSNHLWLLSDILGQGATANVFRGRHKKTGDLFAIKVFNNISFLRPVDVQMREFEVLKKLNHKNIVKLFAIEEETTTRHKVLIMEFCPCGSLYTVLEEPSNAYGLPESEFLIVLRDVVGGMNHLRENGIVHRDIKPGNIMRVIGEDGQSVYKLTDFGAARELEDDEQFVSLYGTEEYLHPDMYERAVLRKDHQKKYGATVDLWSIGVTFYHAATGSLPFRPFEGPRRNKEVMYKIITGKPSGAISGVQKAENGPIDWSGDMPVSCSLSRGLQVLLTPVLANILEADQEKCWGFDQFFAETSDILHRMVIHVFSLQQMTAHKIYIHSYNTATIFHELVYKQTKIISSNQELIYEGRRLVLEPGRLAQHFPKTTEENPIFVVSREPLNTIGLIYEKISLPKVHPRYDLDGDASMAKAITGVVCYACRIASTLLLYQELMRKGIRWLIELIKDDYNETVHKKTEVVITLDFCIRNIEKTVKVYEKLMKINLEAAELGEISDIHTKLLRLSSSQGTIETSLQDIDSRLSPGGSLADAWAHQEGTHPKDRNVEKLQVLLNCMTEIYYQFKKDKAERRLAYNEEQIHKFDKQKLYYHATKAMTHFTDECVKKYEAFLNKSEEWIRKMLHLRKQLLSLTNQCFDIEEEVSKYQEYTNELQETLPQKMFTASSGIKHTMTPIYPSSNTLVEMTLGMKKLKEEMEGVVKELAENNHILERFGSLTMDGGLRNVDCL
# Target: TBK1 (Homo sapiens (Human), UniProt Q9UHD2)
# Test: TBK1 low ATP kinase assay (in vitro assay 1)
# Format: biochemical
# Conditions: read-out: TBK1 low ATP kinase assay IC50
compound,measurement,value
CN(C)c1nccnc1-c1ccc2nc(Nc3cc(CN4CCN(C(=O)OC(C)(C)C)CC4)ccn3)[nH]c2c1,IC50,1530 nM
